## OPERA 2.9 data: melting point values

Data: OPERA 2.9 data sets, kmansouri/OPERA on GitHub.

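The numbers are reported measurements, compiled and curated for the OPERA QSAR suite. A listed value is a point estimate from one report or more. Method, purity and exact conditions of the single measurements are not given. Where a salt, mixture or single isomer is drawn, the source does not say that exactly this form was tested. Unmarked limits or estimates from the upstream databases cannot be ruled out.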

Melting points are in °C. "n/a" marks a cell with nothing listed here.

structure (SMILES),name,melting point (°C)
Cc1cc(C(F)(C(F)(F)F)C(F)(F)F)ccc1NC(=O)c1ccccc1/C(O)=N/C(C)(C)CS(C)=O (stereo partly drawn),n/a,164
Cc1cc(C)c(Cl)c(C)c1Cl,"2,4-DICHLOROMESITYLENE",59
O=C(CCl)Nc1ccccc1Sc1ccccc1,2-Chloro-N-[2-(phenylsulfanyl)phenyl]acetamide,160
CCc1ccc(C(=O)O)s1,5-ethylthiophene-2-carboxylic acid,61
O=C(O)C=Cc1cc(Br)ccc1F,3-(5-Bromo-2-fluorophenyl)-2-propenoic acid,194.5
Cc1ccccc1-c1nnc(N)o1,"1,3,4-Oxadiazole, 2-amino-5-(o-tolyl)-",161
O=Cc1c(Cl)nc2ccccn2c1=O,"4H-Pyrido(1,2-a)pyrimidine-3-carboxaldehyde, 2-chloro-4-oxo-",214
FC(F)CCCCC(F)(F)COP1(OCC(F)(F)C(F)(F)C(F)(F)C(F)(F)C(F)(F)C(F)F)=NP(OCC(F)(F)C(F)(F)C(F)(F)C(F)(F)C(F)(F)C(F)F)(OCC(F)(F)C(F)(F)C(F)(F)C(F)(F)C(F)(F)C(F)F)=NP(OCC(F)(F)C(F)(F)C(F)(F)C(F)(F)C(F)(F)C(F)F)(OCC(F)(F)C(F)(F)C(F)(F)C(F)(F)C(F)(F)C(F)F)=N1 (stereo not given),n/a,30
Cc1cccc(NC(=O)C=NO)c1C,"N-(2,3-Dimethylphenyl)-2-(hydroxyimino)acetamide",111
O=C(O)c1ccc(-c2nc3ccccc3s2)o1,"5-(1,3-Benzothiazol-2-yl)furan-2-carboxylic acid",184
COC(=O)C(C)(C)C#N,methyl 2-cyano-2-methylpropanoate,-8
CCCCOP(C)(=O)CCC(C#N)OC(C)=O (stereo not given),n/a,-62.7
NC(=O)c1cnc(Cl)c(Cl)c1,"5,6-dichloropyridine-3-carboxamide",205
ClCc1ncc(-c2ccc(Cl)cc2)o1,"2-(Chloromethyl)-5-(4-chlorophenyl)-1,3-oxazole",55
N#Cc1ccc(NC(N)=O)cc1,N-(4-Cyanophenyl)urea,235
N=c1cc2n(-c3ccccc3)c3cc(Nc4ccccc4)c4c(S(=O)(=O)[O-])cccc4c3nc-2cc1S(=O)(=O)[O-].[Na+].[Na+],n/a,157
Nc1cc(-c2cccc([N+](=O)[O-])c2)[nH]n1,3-(3-nitrophenyl)-1H-pyrazol-5-amine,138
CCCCCCCCCCCCCCOC(=O)CCCCCCCCCCC,"Dodecanoic acid, tetradecyl ester",37.11
COc1ccc(S(=O)(=O)Cl)cc1C(=O)O,5-Chlorosulphonyl-2-anisic acid,143
Cc1cc(C=O)c(C)n1-c1ccc(Cl)cc1,"1-(4-Chlorophenyl)-2,5-dimethyl-1H-pyrrole-3-carbaldehyde",124
CCNC(=O)c1ccc(N)cc1,4-Amino-N-ethylbenzamide,74
N#Cc1ccccc1N=C(O)c1snc(Cl)c1Cl,Isotianil,194.4
Nc1cccc(N2C(=O)CNC2=O)c1,"3-(3-Aminophenyl)imidazolidine-2,4-dione",157
S=c1[nH]c(-c2ccccc2)c(-c2ccccc2)n1Cc1ccccc1,"1-benzyl-4,5-diphenyl-1H-imidazole-2-thiol",281
N#Cc1c(SCC(=O)O)nc2c(c1-c1ccco1)CCCC2,n/a,210
CCCc1ccc(-c2ccc(-c3ccc(CC)cc3)cc2F)cc1,n/a,72.9
CCOc1ccc(Cc2cc([C@@H]3O[C@H](COC(C)=O)[C@@H](OC(C)=O)[C@H](OC(C)=O)[C@H]3OC(C)=O)ccc2Cl)cc1,n/a,130.6
CO/N=C(\C(=O)Sc1nc2ccccc2s1)c1csc(N)n1,n/a,128.7
CCCC(=O)c1cccc([N+](=O)[O-])c1,1-(3-Nitrophenyl)-1-butanone,61
CCCCCCCC/C=C\CCCCCCCC(=O)N[C@@H](CO)[C@H](O)[C@H](O)CCCCCCCCCCCCCC,Ceramide 3B,101
CCc1cccc(C)c1Nc1ccc(Nc2c(C)cccc2CC)c2c1C(=O)c1ccccc1C2=O,n/a,171.4
O=C1OC(=O)c2cc(Oc3ccc(C(c4ccc(Oc5ccc6c(c5)C(=O)OC6=O)cc4)(C(F)(F)F)C(F)(F)F)cc3)ccc21,n/a,228

Extract of 2 entries:

structure (SMILES)	name	melting point (°C)
N#Cc1c(SCC(=O)O)nc2c(c1-c1ccco1)CCCC2	n/a	210
O=C(O)c1ccc(-c2nc3ccccc3s2)o1	5-(1,3-Benzothiazol-2-yl)furan-2-carboxylic acid	184